Source: US6562606B1, “Methods and compositions for disrupting the epithelial barrier function” (The Regents of the University of California, priority 1993, dated 2003)

Settings: for Plasma Conc. (% dose/ml plasma) / Total Body Conc. (%): lidocaine
[1] = solitary enhancer Conc 0.15 %, intact skin
[2] = solitary enhancer Conc 0.2 %, acetone-treated (prepermeabilized) skin

Substance: Bromophenacylbromide
- Plasma Conc. (% dose/ml plasma) [1]: 0.19 ± 0.10 % dose/ml plasma
- Total Body Conc. (%) [1]: 14.73 ± 5.86%
- Plasma Conc. (% dose/ml plasma) [2]: 0.84 ± 0.07 % dose/ml plasma
- Total Body Conc. (%) [2]: 39.42 ± 11.09%
- lidocaine delivery, increase vs vehicle in words (solitary agent on intact skin): nearly significantly increased lidocaine delivery
- lidocaine delivery, increase vs vehicle in words (statistical significance vs vehicle, concentrations and skin treatment as in Tables 2-7): very significant increases of both lidocaine delivery and water permeability

Read-outs that look alike come from different tables or passages of the source.
